{
  "sequences": {"note": "The chains behind the UniProt entries cited, without tags or fusion partners.", "UniProt Q9R1A7, whole entry": "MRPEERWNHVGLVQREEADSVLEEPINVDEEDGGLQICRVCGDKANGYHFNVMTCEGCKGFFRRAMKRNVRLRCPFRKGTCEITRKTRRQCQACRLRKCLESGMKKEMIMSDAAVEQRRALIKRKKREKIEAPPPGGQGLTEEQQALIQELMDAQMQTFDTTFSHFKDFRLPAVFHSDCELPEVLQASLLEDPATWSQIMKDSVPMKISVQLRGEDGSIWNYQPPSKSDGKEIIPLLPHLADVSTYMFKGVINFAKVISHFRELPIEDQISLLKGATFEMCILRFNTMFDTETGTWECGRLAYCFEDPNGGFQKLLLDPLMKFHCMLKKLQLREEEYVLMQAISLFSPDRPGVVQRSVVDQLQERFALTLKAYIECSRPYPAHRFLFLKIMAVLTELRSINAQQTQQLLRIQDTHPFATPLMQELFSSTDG"},
  "source": "PubChem BioAssay AID1346983",
  "about": "(Tox21, 2019)",
  "note": "The list shows a part of the results, in another mix than the full data. Some tests of the compounds listed are not included; inactive here does not mean inactive elsewhere. Records with an inconclusive call do not appear. Active and inactive are the calls of the source. Calls follow the shape of the dose curve; as a rule, active = well fitted activation curve with a large enough effect in the repeat runs; inconclusive = weak or mixed curves; inactive = no such curve, though single readings can be large or run the other way. % is scaled to controls: 0 for no effect and ±100 for the full control effect.",
  "data": [
    {"target": "Nuclear receptor subfamily 1 group I member 2 (Rattus norvegicus) (UniProt Q9R1A7)", "experiment": "Rat pregnane X receptor (rPXR) activation by small molecules, qHTS assay; also: nearly all actives have a fitted effect of over 20% in size", "details": "rPXR luciferase reporter cells, One-Glo luminescence, 24 h; stronger effect = higher value", "source_text": "National Center for Advancing Translational Sciences [NCATS] NIH Chemical Genomics Center [NCGC] U.S. Environmental Protection Agency [EPA] National Institutes of Environmental Health Sciences [NIEHS] National Toxicology Program [NTP] Assay overview: The Pregnane X receptor (PXR), a ligand activated nuclear receptor plays a critical role in the regulation of genes involved in drug metabolism and transporters. PXR binds xenobiotics and when compounds interact with PXR produces enhanced expression of CYP3A genes. In humans PXR activation and CYP3A4 induction can be problematic due to their interactions with co-medicated drugs and decrease their efficacy or increase their own metabolism. However, there are known species-specific differences with regard to PXR activation that should be taken into account when animal PXR data are extrapolated to humans. A cell based rat PXR (rPXR) assay (developed by Puracyp, Inc., CA) was used to assess the activation of rPXR.\nAssay Protocol Summary: rPXR cells were dispensed at 2,000 per well in 5uL of assay medium into white, solid-bottom 1536-well plates using a Multidrop Combi dispenser (Thermo Scientific). […] Then 5ul One-Glo assay reagent (Promega) was added to each plate by a Flying Reagent Dispenser (FRD, Aurora Discovery) and following 30 min incubation at room temperature, luciferase activity was quantified on a ViewLux plate reader (Perkin Elmer).", "values": [
      {"smiles": "CN1CCCC(OC(=O)C(O)(c2ccccc2)c2ccccc2)C1", "note": "(stereo unspecified)", "max activation": "inactive: 2.3%"}
    ]}
  ]
}
